From PubChem BioAssay AID1631 (National Center for Advancing Translational Sciences (NCATS), 2009)
This is a selection; strong and weak results do not stand in their true shares. The source made the active and inactive calls. Calls come from the whole dose curve; as a rule, active = well fitted activation curve with a large enough effect; inconclusive = small, poorly fitted or top-dose-only effect; inactive = no such curve, though single readings can be large or run the other way.

Chains of the proteins cited; added tags and fusions are not shown.
UniProt P14618, whole entry, looked up: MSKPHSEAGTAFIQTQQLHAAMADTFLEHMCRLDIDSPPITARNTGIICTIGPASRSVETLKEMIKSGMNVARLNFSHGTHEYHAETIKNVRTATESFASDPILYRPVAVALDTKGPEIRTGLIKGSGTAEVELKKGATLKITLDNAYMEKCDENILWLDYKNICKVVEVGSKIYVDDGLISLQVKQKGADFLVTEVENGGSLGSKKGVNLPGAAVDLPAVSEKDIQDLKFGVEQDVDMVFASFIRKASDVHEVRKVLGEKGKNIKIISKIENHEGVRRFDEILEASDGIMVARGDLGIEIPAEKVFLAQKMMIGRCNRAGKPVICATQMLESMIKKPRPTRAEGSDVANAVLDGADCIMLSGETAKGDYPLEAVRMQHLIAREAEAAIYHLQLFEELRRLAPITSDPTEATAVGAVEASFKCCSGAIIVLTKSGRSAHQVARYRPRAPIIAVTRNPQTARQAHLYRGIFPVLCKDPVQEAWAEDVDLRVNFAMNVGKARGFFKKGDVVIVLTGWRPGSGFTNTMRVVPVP

These molecules were tested against Pyruvate kinase PKM (Homo sapiens) (UniProt P14618) (assay: qHTS Assay for Activators of Human Muscle isoform 2 Pyruvate Kinase). Conditions: purified PKM2, Kinase-Glo ATP luminescence, 0% is enzyme alone, no compound; at 57.5 µM (top of the series).
From the text: NIH Chemical Genomics Center [NCGC] Matthew G. Vander Heiden, M.D., Ph.D. [Harvard Medical School, 77 Avenue Louis Pasteur, Boston, MA 02115] MLPCN Grant: 1 R03 MH085679-01 NCGC Assay Overview: Human pyruvate kinase muscle 2 (hPK-M2) enzyme was supplied as a highly purified (>95% pure) preparation from Harvard Medical School and assayed for its ability to generate ATP from ADP using phosphoenolpyruvate (PEP) as a substrate. ATP generation was detected in a coupled reaction by luciferase-mediated luminescence, an ATP-dependent process. […] The enzyme was assayed at an intermediate level of activity to screen for both inhibitors and activators.
NCGC Assay Protocol Summary: Three uL of substrate mix (at r.t.) in assay buffer (50 mM Imidazole pH7.2, 50 mM KCl, 7 mM MgCl2, 0.01% Tween 20, 0.05% BSA) was dispensed into white solid bottom 1,536 well microtiter plates so that the final concentrations of substrates in the assay were 0.1 mM ADP and 0.5 mM PEP. 23 nL of compound were delivered by a pin tool and 1 uL of enzyme mix in assay buffer (4 degree Celsius) was added. Plates were incubated at room temperature for 1 hour. Two uL of detection mix (Kinase-Glo, Promega; at 4 degree Celsius protected from light) was added and luminescence read by a ViewLux (Perkin Elmer) at 5 second exposure/plate. Data were normalized to the uninhibited and AC100 inhibition (no enzyme). To monitor activation, the first column contained a titration of the activator, NCGC00031955-01 (16-point 1:2 dilutions in duplicate starting at 57 uM) and the first 16 rows of column 4 contained 57 uM of NCGC00031955-01.
% is set by controls: 0 for no effect and ±100 for the full control effect.
Note: nearly all actives have a fitted effect of over 55% in size.

Compound	activation
C[N+]1=C2C=CC=CC=C2SC12C([N+](=O)[O-])=CC([N+](=O)[O-])=C[C-]2[N+](=O)[O-] (stereo not given)	inactive: -2.65%
O=C(COc1ccccc1)OC1CN2CCC1CC2 (stereo not given)	inactive: -1.03%
COP1(=S)c2c(C)nn(CCC#N)c2N=C(c2ccc(F)cc2)N1C (stereo not given)	inactive: -13.3%
CCC(C)N(CC(C)C)C(=S)SC(NC(C)=O)C(Cl)(Cl)Cl (stereo not given)	inactive: -17.2%
CCOC(=O)c1ccc(NC(=O)C(C)(CCl)SC)cc1 (stereo not given)	inactive: 0.0419%
CCCCOc1ccc(C(=O)NCC2(N3CCCCC3)CCCCC2)cc1OC	inactive: -0.258%
Cc1cc(SC(NC(=O)c2ccccc2)C(Cl)(Cl)Cl)nc(C(C)C)n1 (stereo not given)	inactive: 2.72%
CCOC(=O)Nc1ccc([As](=O)(O)O)c(O)c1	inactive: -2.99%
O=P(Nc1ccccn1)(c1cccc2ccccc12)c1cccc2ccccc12	inactive: -0.0234%
Cc1cc(SC(NC=O)C(Cl)(Cl)Cl)ncn1 (stereo not given)	inactive: -28.5%
O=[N+]([O-])c1ccc(Nc2ccc(Oc3ccc([N+](=O)[O-])cc3[N+](=O)[O-])cc2)c([N+](=O)[O-])c1	inactive: -0.862%
CCOC(=O)Nc1cccc([As](=O)(O)O)c1	inactive: 0.254%
Cc1ccc(OP(=O)(Nc2ccc([N+](=O)[O-])cn2)Oc2ccc(C)cc2)cc1	inactive: -0.504%
Cc1ccc2nc3c(c(C)c2c1)CC(C(Cl)Cl)S3 (stereo not given)	inactive: -17.5%
C[As](=O)(O)c1cccc(C(=O)O)c1	inactive: -1.94%
O=[As](O)(c1ccc(O)cc1)c1ccccc1O	inactive: 1.86%
CCN(CC)C(=S)SC(NC=O)C(Cl)(Cl)Cl (stereo not given)	inactive: -5.96%
CC(C)NC(=O)NP(=O)(Oc1ccccc1)Oc1ccccc1	inactive: 2.45%
O=[N+]([O-])c1cc([N+](=O)[O-])c(-c2ccn[nH]2)s1	inactive: 2.7%
ClCCSc1nnc(-c2cccnc2)o1	inactive: 1.66%
CC(C)c1ccc(OP(=O)(Nc2ccccn2)Oc2ccccc2F)cc1 (stereo not given)	inactive: 0.666%
COc1ccc2nc(NP(=O)(c3ccccc3)c3ccccc3)sc2c1	inactive: -0.804%

Compound	activation
COc1cc(I)ccc1[As](=O)(O)O	inactive: 0.477%
Cc1c2c(nc3ccccc13)SC(C(Cl)Cl)C2 (stereo not given)	inactive: -2.1%
O=C(OC1CN2CCC1CC2)C12CC3CC(CC(C3)C1)C2 (stereo not given)	inactive: 5.24%
Cc1cc(=O)[nH]c(N[N+](=O)[O-])n1	inactive: -27%
COc1ccc(N/C(=N/P(=O)(N2CCOCC2)N2CCOCC2)N2CCOCC2)cc1	inactive: 1.77%
O=[As](O)(c1cccc(O)c1)c1cccc(O)c1	inactive: -2.62%
Cc1cccc(OCC(=O)OC2CN3CCC2CC3)c1 (stereo not given)	inactive: -6.44%
O=C(OC1CN2CCC1CC2)c1ccc(Cl)cc1 (stereo not given)	inactive: -2.38%
COc1cc(C(=O)NCC2(N3CCOCC3)CCCCC2)cc(Cl)c1OC(C)C	inactive: -0.83%
O=[As](O)(O)c1cccnc1	inactive: -1.42%
CS(=O)(=O)c1ccc(Cl)c(NC(=O)COC(=O)C(O)(c2ccccc2)c2ccccc2)c1	inactive: -8.19%
COc1cc(C2NCCC3(OCCO3)C2(C)C)cc(OC)c1OC (stereo not given)	inactive: 2.77%
CCOP(=O)(Nc1cccc2ccccc12)OCC	inactive: -0.0739%
Nc1cccc2c([As](=O)(O)O)cccc12	inactive: -0.525%
Cc1ccc(NCCc2c([N+](=O)[O-])cc([N+](=O)[O-])cc2[N+](=O)[O-])cc1	inactive: -1.01%
CCCOP(=S)(Nc1nc(N)cc(=O)[nH]1)OCCC	inactive: -9.04%
Nc1ccccc1[As](=O)(O)c1ccccc1	inactive: 0.261%
O=C(O)COc1ccc([As](=O)(O)O)cc1[N+](=O)[O-]	inactive: 13.5%
CCOP1(=S)c2c(C)nn(CCC#N)c2N=C(c2ccccc2F)N1C (stereo not given)	inactive: 0.0695%
O=P(Nc1nccs1)(c1ccccc1)c1nc2ccccc2s1 (stereo not given)	inactive: -68.1%
O=P(Nc1nccs1)(Oc1ccccc1)Oc1ccccc1	inactive: -11.7%
CS(=O)(=O)c1cc([N+](=O)[O-])c2no[n+]([O-])c2c1	inactive: -67.5%

Compound	activation
CCOP1(=S)c2c(C)nn(CCC#N)c2N=C(c2ccc(F)cc2)N1C (stereo not given)	inactive: 0.518%
CN(C(=O)Cc1ccccc1)[C@@H]1CC[C@]2(CCCO2)C[C@H]1N1CCCC1	inactive: -8.26%
O=[N+]([O-])c1ccc2c(c1)nnn2O	inactive: -0.288%
NC(=O)Nc1ccc([As](=O)(O)O)cc1	inactive: -0.974%
CN(C)C1(CNC(=O)c2ccc(S(C)(=O)=O)cc2)CCCCC1	inactive: -2.16%
O=C(/C=C/c1ccccc1)OC1CN2CCC1CC2 (stereo not given)	inactive: -0.203%
Cc1nn(-c2ccccc2)c2c1P(=O)(N1CCOCC1)N(C)C(c1ccccc1)=N2 (stereo not given)	inactive: -1.36%
CC1CCC(C(C)C)C(OP(=O)(Nc2ccccn2)c2ccccc2)C1 (stereo not given)	inactive: 0.574%
Nc1cccc([As](=O)(O)c2ccccc2)c1	inactive: 3.72%
O=P1(Nc2ccc(Br)cn2)COc2ccccc2OC1	inactive: 4.08%
O=[As](O)(c1cccs1)c1cccs1	inactive: -4.75%
Cc1ccc(OCC(=O)OC2CN3CCC2CC3)cc1 (stereo not given)	inactive: -1.06%
O=P1(Nc2ncccn2)COc2ccccc2OC1	inactive: -15.9%
Clc1n[nH]nc1-c1nn[nH][15n]1	inactive: -20.4%
CC(C)(C)C(=O)NC(Sc1ncccn1)C(Cl)(Cl)Cl (stereo not given)	inactive: 3.31%
O=P1(Nc2ccccn2)COc2ccccc2OC1	inactive: 0.0678%
CCC1=CC2Cc3nc4ccc(Cl)cc4c(N)c3C(C1)C2 (stereo not given)	inactive: 16.6%
CCOP(=O)(Nc1ccc(C)cn1)OCC	inactive: -1.05%
CC(C)/C=N\N=C(\N)N[N+](=O)[O-]	inactive: -0.212%
CN(C(=O)Cc1ccc(Cl)c(Cl)c1)[C@@H]1CCCC[C@H]1N1CCCC1	inactive: 2.93%
O=[As](O)(c1ccccc1Br)c1ccccc1Br	inactive: -5.6%
